Earlier results in paper PMC3197697 (Bioorganic & medicinal chemistry, 2011).

Amino acid sequences for entries named in this document (tags omitted).
UniProt P32245, whole entry: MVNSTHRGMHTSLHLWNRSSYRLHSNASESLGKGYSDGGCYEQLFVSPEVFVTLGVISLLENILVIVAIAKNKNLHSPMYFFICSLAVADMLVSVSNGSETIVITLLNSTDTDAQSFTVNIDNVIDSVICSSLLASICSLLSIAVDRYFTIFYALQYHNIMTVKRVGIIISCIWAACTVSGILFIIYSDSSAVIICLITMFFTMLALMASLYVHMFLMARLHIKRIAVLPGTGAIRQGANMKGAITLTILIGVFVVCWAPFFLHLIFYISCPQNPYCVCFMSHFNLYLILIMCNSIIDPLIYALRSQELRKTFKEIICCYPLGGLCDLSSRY

How the values were obtained:
MC4R = MC4R (Homo sapiens, UniProt P32245); details: introduction statement
CCK2R = target: T1, CCK2R (Homo sapiens, UniProt P32239); details: introduction statement
T1 sequence (P32239 1-447): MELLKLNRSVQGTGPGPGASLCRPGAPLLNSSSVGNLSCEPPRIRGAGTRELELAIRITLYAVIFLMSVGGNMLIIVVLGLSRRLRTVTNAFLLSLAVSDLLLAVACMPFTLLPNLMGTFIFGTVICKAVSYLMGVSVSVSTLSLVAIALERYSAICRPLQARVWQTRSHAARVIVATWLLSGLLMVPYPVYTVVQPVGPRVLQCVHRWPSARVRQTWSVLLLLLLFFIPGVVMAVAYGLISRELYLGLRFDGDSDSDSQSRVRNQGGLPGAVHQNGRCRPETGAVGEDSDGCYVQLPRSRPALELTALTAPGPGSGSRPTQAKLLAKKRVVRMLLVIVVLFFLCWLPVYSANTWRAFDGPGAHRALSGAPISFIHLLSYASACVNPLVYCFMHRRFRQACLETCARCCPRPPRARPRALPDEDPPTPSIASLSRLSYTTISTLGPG

affinity for binding to MC4R (in words) (MC4R) | affinity for binding to CCK2R (in words) (CCK2R) | Molecule
low micromolar |  | CC(=O)N[C@@H](Cc1c[nH]cn1)C(=O)N[C@H](Cc1ccccc1)C(=O)N[C@@H](CCCNC(=N)N)C(=O)N[C@@H](Cc1c[nH]c2ccccc12)C(N)=O [MSH4, Ac-His-DPhe-Arg-Trp-NH2]
 | low nanomolar | Trp-Met-Asp-Phe-NH2 [CCK4]
